Assay results: patent US20110269759A1, “PYRIMIDINE COMPOUNDS AS DELTA OPIOID RECEPTOR MODULATORS” (priority 2009, published 2011)

The chains behind the UniProt entries cited, without tags or fusion partners. Where a name states a change or a piece, a line headed by the entry shows the natural chain unless it says otherwise.
UniProt P32300, whole entry: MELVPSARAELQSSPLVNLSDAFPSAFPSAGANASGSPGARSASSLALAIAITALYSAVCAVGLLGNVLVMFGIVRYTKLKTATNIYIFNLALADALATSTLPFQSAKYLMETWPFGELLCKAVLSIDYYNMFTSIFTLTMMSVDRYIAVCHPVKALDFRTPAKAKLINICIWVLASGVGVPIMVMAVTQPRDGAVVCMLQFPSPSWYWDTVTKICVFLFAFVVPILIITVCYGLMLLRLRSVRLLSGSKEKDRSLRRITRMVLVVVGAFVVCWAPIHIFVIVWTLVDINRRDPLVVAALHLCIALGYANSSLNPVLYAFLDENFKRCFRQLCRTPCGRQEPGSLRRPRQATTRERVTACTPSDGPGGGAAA

Molecular target: δ-opioid receptor (Mus musculus, UniProt P32300)
Assay: [35S]GTPγS δ-opioid receptor functional assay (EC50, relative efficacy, % inhibition)
Type: biochemical
Design: NG108-15 cell membranes were purchased from Applied Cell Sciences (Rockville, Md.)

Q: How did the EC50 turn out when `COc1ccc(Oc2cc(-c3ccccc3)ccc2NC[C@@H]2CCCN2)cc1` [Cpd 35, (S)-[3-(4-Methoxy-phenoxy)-biphenyl-4-yl]-pyrrolidin-2-ylmethyl-amine] was run?
A: The EC50 was 1460 nM.

Q: With `CNCCNc1ccc(Oc2ccc(OC)cc2)cc1Oc1ccc(OC)cc1` [Cpd 63, N-[2,4-Bis-(4-methoxy-phenoxy)-phenyl]-N′-methyl-ethane-1,2-diamine] as the molecule, how does the EC50 read?
A: The EC50 was 3110 nM.
